The text below walks through data of patent US6506381B1, “Modified red blood cell that has surface molecules that neutralize chemical agents” (dated 2003).

Some compounds may have been tested in ways that are not shown here.

In the series the test system is Fisher rats. Kind of series: paraoxone challenge of rats carrying modified red blood cells. The settings on record: 5X (X=published LD50) i.p., control rats having no modified red blood cells.

Regarding paraoxone, the lethality result is given as “uniformly lethal”.
